Test results from PubChem BioAssay (NCATS).
“And” between values parts separate entries of the source, which are not always exact repeats. Identical values can stand only once. This is a selection; strong and weak results do not stand in their true shares. Results filed as inconclusive are left out. For part of these data: Measured potencies and affinities stand elsewhere. The source made the active and inactive calls. Unless noted, calls come from the whole dose curve; as a rule, active = well fitted curve in the direction sought with a large enough effect; inconclusive = small, poorly fitted or top-dose-only effect, or another doubt; inactive = no such curve, though single readings can be large; an effect the other way counts as inactive or inconclusive.

The chains behind the UniProt entries cited, without tags or fusion partners.
UniProt P01375, whole entry: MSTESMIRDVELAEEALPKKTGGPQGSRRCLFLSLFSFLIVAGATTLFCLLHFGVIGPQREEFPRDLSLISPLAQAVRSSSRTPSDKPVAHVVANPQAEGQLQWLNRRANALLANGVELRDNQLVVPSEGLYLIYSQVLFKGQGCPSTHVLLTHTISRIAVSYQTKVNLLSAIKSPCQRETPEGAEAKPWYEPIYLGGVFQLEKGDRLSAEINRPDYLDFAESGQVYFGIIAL
UniProt Q07869, whole entry: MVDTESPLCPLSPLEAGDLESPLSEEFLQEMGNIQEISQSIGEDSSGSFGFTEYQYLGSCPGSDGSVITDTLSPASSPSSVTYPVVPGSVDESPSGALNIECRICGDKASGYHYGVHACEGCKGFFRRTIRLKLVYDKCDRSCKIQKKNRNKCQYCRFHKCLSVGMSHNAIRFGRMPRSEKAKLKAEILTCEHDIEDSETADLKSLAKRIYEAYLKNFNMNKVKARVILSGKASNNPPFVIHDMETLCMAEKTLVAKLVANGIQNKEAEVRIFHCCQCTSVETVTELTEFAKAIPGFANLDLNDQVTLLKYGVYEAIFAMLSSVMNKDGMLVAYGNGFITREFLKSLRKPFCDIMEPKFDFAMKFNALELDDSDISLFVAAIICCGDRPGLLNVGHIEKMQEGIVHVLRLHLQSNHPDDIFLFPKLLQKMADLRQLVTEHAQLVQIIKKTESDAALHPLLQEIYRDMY

Experiments:
[1] = qHTS assay for small molecule agonists of the antioxidant response element (ARE) signaling pathway (AID 651741; active = well fitted activation curve with a large enough effect in the signal ratio; the % refers to the signal ratio; note: % of control where 0% means no effect); details: HepG2 ARE-bla reporter, beta-lactamase FRET ratio, 16 h; at 96 µM (top of the series)
Method in brief: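 ARE-bla HepG2 cells (beta-lactamase reporter under ARE control) were plated at 2,000 cells/well, preincubated 5 h at 37 C/5% CO2, then treated with DMSO-dissolved compounds for 16 h at 37 C; LiveBLAzer B/G FRET substrate added, fluorescence read after 2 h at room temperature.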

[2] = qHTS assay for small molecule activators of the p53 signaling pathway (AID 651743; active = well fitted activation curve with a large enough effect in the signal ratio, not every such curve was filed as active; the % refers to the signal ratio; note: % of control where 0% means no effect); details: HCT-116 p53RE-bla, beta-lactamase FRET ratio, 16 h; stronger effect = higher value
Method in brief: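 p53RE-bla HCT-116 cells with a stably integrated beta-lactamase reporter under p53 response elements were plated, rested 5 hours at 37 C/5% CO2, then exposed to compounds in DMSO for 16 hours at 37 C. LiveBLAzer B/G FRET substrate was read after 2 hours at room temperature.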

[3] = qHTS assay for small molecule activators of the nuclear factor-kappa B (NF-kB) signaling pathway (AID 651749; active = well fitted activation curve with a large enough effect in the signal ratio; the % refers to the signal ratio; note: % of control where 0% means no effect); details: NF-kB-bla ME-180 cells, beta-lactamase FRET ratio, 16 h; stronger effect = higher value
Method in brief: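 ME-180 cells stably carrying a beta-lactamase reporter under an NF-kB response element were exposed to compound or DMSO vehicle for 16 hr at 37C, 5% CO2. Pathway activation was read by FRET, since reporter expression disrupts FRET.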

[4] = qHTS assay for small molecule disruptors of the mitochondrial membrane potential - 1 hr assay (AID 651754; calls by dose curve; note: % is set by controls: 0 for no effect and ±100 for the full control effect; nearly all actives have a fitted effect of over 35% in size); details: HepG2 mitochondrial membrane potential, JC-1 ratio 590/535, 1 h; at 92.2 µM (top of the series)
Method in brief: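 Steps: seed HepG2 cells and let attach overnight; pin-transfer compound or vehicle; incubate 1 hr at 37C; add Mito-MPS dye for 30 min; read two-channel fluorescence for monomer and aggregate forms.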

[5] = qHTS assay for small molecule disruptors of the mitochondrial membrane potential - 5 hr assay (AID 651755; calls by dose curve; note: % is set by controls: 0 for no effect and ±100 for the full control effect; nearly all actives have a fitted effect of over 40% in size); details: JC-1-type ratio dye; at 92.2 µM (top of the series)
[6] = molecular target: Tumor necrosis factor (Homo sapiens) (UniProt P01375); assay: qHTS assay to identify small molecules that stimulate Tumor Necrosis Factor-alpha (TNF-alpha) secretion (AID 651757; active = well fitted curve in the direction sought with a large enough effect in the signal ratio; the % refers to the signal ratio; note: 0% is about no effect); details: Human cells, HTRF 665/615 ratio; at 92.2 µM (top of the series)
Method in brief: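 Secreted TNF-alpha from compound-treated THP-1 cells (17 hrs, 37 C) was quantified with a homogeneous time-resolved fluorescence antibody assay.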

[7] = qHTS assay for environmental chemicals that activate the Aryl hydrocarbon Receptor (AhR) signaling pathway (AID 651777); details: 1A2-DRE human hepatoma cells, luciferase, 24 h; stronger effect = higher value; note: % of control where 0% means no effect; nearly all actives have a fitted effect of over 15% in size
Method in brief: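 Induction of CYP1A2 transcription through AhR is detected by luciferase in 1A2-DRE hepatoma cells. Compounds or DMSO act for 24 hr at 37 C before a 30 min One-Glo step at room temperature.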

[8] = molecular target: Peroxisome proliferator-activated receptor alpha (Homo sapiens) (UniProt Q07869); assay: qHTS assay for small molecule agonists of the peroxisome proliferator-activated receptor alpha (PPARalpha) signaling pathway (AID 651778); details: PathHunter PPARalpha complementation, chemiluminescence, 6 h; stronger effect = higher value; note: % of control where 0% means no effect
Method in brief: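 Cells plated at 2,000/well and held overnight at 37 C, 5% CO2, then compound added by pin tool for 6 hr; after PathHunter detection reagent and 60 min at room temperature, chemiluminescence from enzyme complementation was read.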

[9] = qHTS assay for small molecule agonists of the antioxidant response element (ARE) signaling pathway measured by Nrf2-dependant transcriptional activity (AID 720636; active = well fitted curve in the direction sought with a large enough effect in the repeat runs; an effect the other way counts as inactive or inconclusive; note: potency is the fitted concentration of half-maximal effect;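 for activation: HepG2 cells with an ARE-driven luciferase reporter; % of control where 0% means no effect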)
Method in brief: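 We exposed ARE-luc HepG2 cells, seeded in assay medium with 1% dialyzed FBS and allowed 6 hr to adhere, to test compounds overnight (16 hr, 37 C) before measuring luciferase with ONE-Glo.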

[10] = qHTS assay for small molecule antagonists of the retinoid-related orphan receptor gamma (ROR-gamma) signaling pathway - cell viability counter screen (AID 720652; active = well fitted curve in the direction sought with a large enough effect in the repeat runs; an effect the other way counts as inactive or inconclusive;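 note: CHO reporter cells with doxycycline-induced ROR-gamma expression; compound exposure lasted 16 hr before ATP read; % is set by controls: 0 for no effect and ±100 for the full control effect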); details: RORgamma reporter cell line viability counter screen; at 92.2 µM (top of the series)

SMILES	activation [1]	activation [2]	activation [3]	ratio change, negative = depolarisation [4]	ratio change, negative = disruption [5]	activation (TNF-alpha secretion) [6]	activation [7]	max response [8]	Potency [9]	activity change, negative = cytotoxicity [10]
O=[N+]([O-])C(Cl)(Cl)Cl	inactive: 0.341% and inactive: 5.1%	inactive: -3.71% and inactive: -2%	inactive: 0.117% and inactive: -1.34%	inactive: -3.65%	inactive: 10.6%	inactive: 0.0365%	inactive: 0.507% and inactive: 0.262%	inactive: -0.475% and inactive: 0.25%	inactive	inactive: -7.78%
CN(CCCl)CCCl	–	–	inactive: 0.111%	–	–	inactive: 3.04%	inactive: 1%	inactive: -0.534%	active: 37.6 µM	–
